Test results from ChEMBL document CHEMBL1124100, “Structure-activity profile of a series of novel triazoloquinazoline adenosine antagonists” (J Med Chem, 1988).

Species on record: Cavia porcellus
Assay: In vitro inhibition of adenylate cyclase activity of synaptoneurosomes from guinea pig cerebral cortex
Assay type: functional

**Q.** Which IC50 does the source give for `CS(=O)(=O)O.Nc1nc2ccc(Cl)cc2c2nc(-c3ccco3)nn12` here?
**A.** Its IC50 is 0.02 µM.
